## Antibody variant affinities, Ab-14 heavy chain, assay B

From the AlphaSeq antibody data of Li et al. 2023 (doi:10.1038/s41467-023-39022-2), copy in the FLAb collection.

Target: peptide PDVDLGDISGINAS, taken from heptad repeat 2 (HR2) of SARS-CoV-2 spike.

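The parent was found by panning a naive human phage display library on the peptide. The variants were designed computationally from a first round of random CDR variants and then made and measured. Several design methods are mixed in this list. The scFvs were displayed on barcoded MATa yeast, the peptide on MATalpha yeast. After mating in shaken culture at 30 °C for 16 h, diploids were selected and their barcode pairs sequenced. The ratio of observed to expected reads was calibrated, replicate by replicate, on BCL2-family standards whose Kd was known from biolayer interferometry. There are six technical replicates.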

Parent: Ab-14, a human scFv built as VH, three GGGGS repeats, VL. Only the CDRs of the heavy chain vary.
VH: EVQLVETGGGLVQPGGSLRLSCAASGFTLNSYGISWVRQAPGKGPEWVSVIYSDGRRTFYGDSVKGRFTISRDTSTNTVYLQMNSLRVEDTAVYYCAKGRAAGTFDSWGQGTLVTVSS
VL: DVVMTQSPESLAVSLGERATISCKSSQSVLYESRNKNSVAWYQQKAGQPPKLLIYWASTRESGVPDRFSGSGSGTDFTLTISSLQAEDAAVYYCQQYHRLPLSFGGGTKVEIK

Positions count from residue 1 of the parent VH; S31T puts T in place of S. Variants here have at most six changes. The Kd shown is the geometric mean over detected replicates; a lower Kd is a better binder. A pair that was not seen in any replicate is written "no signal"; this usually means weak binding, but a binder can also be missed.

| changes | Kd | replicates with signal | empty controls |
|---|---|---|---|
| S31T/F59G | 43 nM | 4 of 6 | 1 of 18 |
| S31Q/Y52M/G61S/T104F | 76 nM | 1 of 6 | 0 of 18 |
| T28D/G61A/R100W/A101T | 260 pM | 6 of 6 | 0 of 18 |
| T28D/S31T/R100Q | 8.6 nM | 6 of 6 | 0 of 18 |
| T28S/S31E/R100K/A101V | 1.1 nM | 6 of 6 | 0 of 18 |
| T104S/D106T/S107K | no signal | 0 of 6 | 0 of 18 |
| G61A/A101I | 15 nM | 12 of 12 | 1 of 36 |
| S31E/T58Y/G61T/A101F | 12 nM | 6 of 6 | 0 of 18 |
| T28S/L29I/S31Q/S107V | 1.2 nM | 6 of 6 | 0 of 18 |
| S31D/F59V/G61S | no signal | 0 of 6 | 0 of 18 |
| S53A/F105D | no signal | 0 of 6 | 0 of 18 |
| T28E/R100N/S107K | 25 nM | 5 of 6 | 0 of 18 |
| T28S/S31E/D62W | 730 pM | 6 of 6 | 1 of 18 |
| G26M/T28D/S31T/R100E/S107V | 96 nM | 6 of 6 | 1 of 18 |
| S31E/G61N/R100T/A101E | 4.6 nM | 6 of 6 | 0 of 18 |
| T28D/R56K/G61I/S63R/R100Q | 430 nM | 6 of 6 | 0 of 18 |
| G26D/G33S | no signal | 0 of 6 | 0 of 18 |
| T28S/S31E/R100K/S107K | 1.1 nM | 6 of 6 | 0 of 18 |
| T28S/S31D/R56K/A101T | 400 pM | 6 of 6 | 0 of 18 |
| T28K/G61T/R100N/A101E | 1.3 nM | 6 of 6 | 2 of 18 |
| G26Y/S31E/A101H/S107T | 210 nM | 3 of 6 | 1 of 18 |
| G26K/R56K/G61S/A101Q | 24 nM | 4 of 6 | 0 of 18 |
| T28D/G61Q/S63K/A101T/S107D | 2.9 nM | 6 of 6 | 0 of 18 |
| T28E/S31E/R100Q/A101T | 3.2 nM | 6 of 6 | 0 of 18 |
| R100P/A101H/A102T/F105E | no signal | 0 of 6 | 0 of 18 |
| I34S/A102E | no signal | 0 of 6 | 0 of 18 |
| Y52M/G61S/A102G/S107W | no signal | 0 of 6 | 0 of 18 |
| S53A/F59R/F105N/D106K | no signal | 0 of 6 | 0 of 18 |
| G26Q/S31E | 43 nM | 3 of 6 | 0 of 18 |
| T28S/S31E/R100K/S107R | 4.2 nM | 6 of 6 | 0 of 18 |
| S31E/S53A/R100Q/D106I | 880 nM | 4 of 6 | 1 of 18 |
| T28S/S31E/G61I/A101N | 1.8 nM | 6 of 6 | 1 of 18 |
| S53A/S63Q/R100E/D106K | no signal | 0 of 6 | 0 of 18 |
| T28N/G61A/S63D/A101E | 350 pM | 6 of 6 | 0 of 18 |
| T28E/R100A/A101T/S107L | 2.8 nM | 6 of 6 | 0 of 18 |
| F59A/G61A | 5.3 nM | 6 of 6 | 0 of 18 |
| T28D/G61C/S63R/A101T | 940 pM | 1 of 6 | 0 of 18 |
| T28D/R56M/G61K | 2.0 nM | 6 of 6 | 0 of 18 |
| T28S/S31E/R100E/S107T | 1.9 nM | 6 of 6 | 0 of 18 |
| N30L/S31E/R56V/D106C | 16 nM | 5 of 6 | 0 of 18 |
| R56K/G61I/R100Q/S107L | 58 nM | 6 of 6 | 0 of 18 |
| T28E/S31E/R100K/A101T/S107A | 25 nM | 4 of 6 | 0 of 18 |
| G61D | 34 nM | 6 of 6 | 0 of 18 |
| T28S/S63Q/R100N/A101T | 760 pM | 6 of 6 | 0 of 18 |
| S53A/T104E | no signal | 0 of 6 | 0 of 18 |
| T28D/F59A/G99N | no signal | 0 of 6 | 0 of 18 |
| F59Q/S107K | 400 nM | 2 of 6 | 0 of 18 |
| T28D/G61A/G103A | 490 nM | 2 of 6 | 1 of 18 |
| T28D/N30K/S53A/G99C/A102R | no signal | 0 of 6 | 0 of 18 |
| T28S/R100S/A101T/S107K | no signal | 0 of 6 | 0 of 18 |
| T28E/S53A/S63Q | no signal | 0 of 6 | 0 of 18 |

The 5 strongest on average among those seen in every replicate, once more:

| changes | Kd | replicates with signal | empty controls |
|---|---|---|---|
| T28D/G61A/R100W/A101T | 260 pM | 6 of 6 | 0 of 18 |
| T28N/G61A/S63D/A101E | 350 pM | 6 of 6 | 0 of 18 |
| T28S/S31D/R56K/A101T | 400 pM | 6 of 6 | 0 of 18 |
| T28S/S31E/D62W | 730 pM | 6 of 6 | 1 of 18 |
| T28S/S63Q/R100N/A101T | 760 pM | 6 of 6 | 0 of 18 |

Where one sequence has several entries in the source, the replicates are pooled. Of ten entries with the parent sequence, four were seen in most replicates (averages 2.2 nM to 240 nM), three in one and three in none, so single entries are noisy. The authors' rule: three or more of the six replicates give a measured affinity, fewer mean a poor binder. Empty control strains, which show no peptide, gave a signal in 1% of pairings with all heavy chain designs; the median was 120 nM and 95% of these signals were weaker than 7.0 nM. No background was subtracted. Also given: how often the same scFv was detected with the empty control strains. Values of this round are not directly comparable with the first-round values of the same sequences.